Screens (PubChem BioAssay)
TDP1 block = blocks human tyrosyl-DNA phosphodiesterase 1; Q9NUW8; AID 485290; recombinant TDP1, AlphaScreen DNA substrate cleavage; hit rate 0.28% among 350,000; Potency, µM (doses to about 130 µM), usual class: inhibitors; further: nearly all actives have a fitted effect of over 40% in size
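Signal: AlphaScreen proximity between streptavidin donor and anti-FITC acceptor beads on intact substrate. Reaction: Tdp1 1 nM, substrate 15 nM final, 5 min RT after 15 min compound preincubation.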
DT40 TDP1 CPT = DT40-hTDP1 cell growth loss with CPT; chicken DT40 Tdp1-/-;hTDP1 cells + 20 nM CPT, ATP luminescence, 48 h; Potency, µM (titrated, usually from 46.2 µM), actives largely listed as inhibitors; hit rate 12% among 420,000; AID 686979; further: nearly all actives have a fitted effect of over 55% in size
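Chicken DT40 Tdp1-/- cells stably complemented with human TDP1 were seeded at 400 cells/well in medium containing 20 nM camptothecin, exposed to pin-transferred compounds, and grown at 37 °C for at least 48 hr. Viability was read as ATP luminescence.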
uPA generation = cell surface uPA generation inhibition | cell surface uPA generation assay, qHTS | Potency, µM (top dose mostly 38.3 µM), most hits filed as inhibitors | hit rate 0.31% among 330,000; active means well fitted inhibition curve with a large enough effect; inconclusive means small, poorly fitted or top-dose-only effect; inactive means no such curve, though single readings can be large or run the other way; tested in mouse RAW 264.7 cells; further: nearly all actives have a fitted effect of over 55% in size
DT40 TDP1 no CPT = qHTS for Inhibitors of human tyrosyl-DNA phosphodiesterase 1 (TDP1): qHTS in cells in absence of CPT | hit rate 15% among 420,000 | DT40 Tdp1-/- hTDP1 cells, no CPT, ATP luminescence, 48 h | Potency, µM (titrated, usually from 46.2 µM), usual class: inhibitors; further: nearly all actives have a fitted effect of over 55% in size
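Compound effects on proliferation are scored in DT40 Tdp1-/-;hTDP1 cells in the absence of CPT. ATP levels (CellTiter-Glo luminescence) are recorded after a ≥48 hr, 37 °C incubation.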
miR-21 reporter = raises the signal of a miR-21 reporter; HeLa miR-21 FLuc reporter, luciferase, 48 h; Potency, µM (series often up to 38.3 µM); 340,000 tested, under 10 active; active = well fitted rising curve with a large enough effect; inconclusive = small, poorly fitted or top-dose-only effect; inactive = no such curve, though single readings can be large or run the other way;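 also: miR-21 action dims this reporter so a rising signal means less miR-21 action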
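HeLa miR-21-FLuc reporter line, endogenous miR-21; 2000 cells/well in DMEM/10% FBS; compound titration up to ~40uM final, 48 h, 37 degree Celsius; luciferase detection reagent, 15 min lysis, CCD luminescence.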
Large screens that a line does not name were inactive. This is a sample that favours compounds with a hit; in the whole collection about 16% have one here. Unless noted, the call rests on the fitted dose curve; in most records, active means well fitted curve in the direction sought with a large enough effect; inconclusive means small, poorly fitted or top-dose-only effect, or another doubt; inactive means no such curve, though single readings can be large; an effect the other way counts as inactive or inconclusive.

C=C(NC(=O)C(=C)NC(=O)c1csc(C2=N[C@@H]3c4csc(n4)[C@H]4NC(=O)c5csc(n5)[C@H]([C@](C)(O)[C@@H](C)O)NC(=O)[C@H]5CSC(=N5)C(=CC)NC(=O)C([C@@H](C)O)NC(=O)c5csc(n5)[C@]3(CC2)NC(=O)[C@H](C)NC(=O)C(=C)NC(=O)[C@H](C)NC(=O)C([C@@H](C)CC)NC2C=Cc3c([C@H](C)O)cc(nc3C2O)C(=O)O[C@@H]4C)n1)C(N)=O (some centres not stated)	DT40 TDP1 CPT 7.2µM, DT40 TDP1 no CPT 5.1µM (no result: TDP1 block, uPA generation, miR-21 reporter)
Cc1ccc(NC(=O)c2ccc(-n3cncn3)c([N+](=O)[O-])c2)cc1	none
O=C(Nc1ccc(Cl)cc1)c1ccc(-n2cncn2)c([N+](=O)[O-])c1	DT40 TDP1 CPT inconclusive, DT40 TDP1 no CPT 16µM
CCN(CC)S(=O)(=O)c1cc(NC(=O)c2ccc(-n3cncn3)c([N+](=O)[O-])c2)ccc1C	DT40 TDP1 CPT inconclusive, DT40 TDP1 no CPT 23µM
O=C(Nc1ccc(Cl)cc1)c1ccc(-n2cccn2)c([N+](=O)[O-])c1	DT40 TDP1 CPT 23µM, DT40 TDP1 no CPT 15µM (no result: uPA generation)
COc1ccccc1NC(=O)CSc1nnc(COc2ccccc2C)o1	DT40 TDP1 no CPT inconclusive (no result: TDP1 block)
COc1cccc(NC(=O)COC(=O)CCC(=O)c2cccs2)c1	none (no result: miR-21 reporter)
Cc1nc2sc(C(N)=O)c(N)c2c(-c2ccc(Br)cc2)c1C(=O)Nc1ccc(Cl)cc1	DT40 TDP1 CPT inconclusive, DT40 TDP1 no CPT inconclusive, miR-21 reporter inconclusive (no result: uPA generation)
CCC(C)NC(=O)c1sc2nc(C)c(C(=O)Nc3ccc(Cl)cc3)c(-c3ccc(Br)cc3)c2c1N (configuration not stated)	DT40 TDP1 CPT inconclusive, DT40 TDP1 no CPT 21µM (no result: uPA generation)
O=C1CCCCC1Sc1nnc(Nc2ccccc2)s1 (configuration not stated)	none
CCN(CC)c1cc2c(c3c1ccn3C)C1CCC2O1 (configuration not stated)	none (no result: TDP1 block, uPA generation, miR-21 reporter)
CCCN(CC1CC1)c1cc2c(c3c1ccn3C)C1CCC2O1 (configuration not stated)	DT40 TDP1 CPT 15µM, DT40 TDP1 no CPT 10µM (no result: TDP1 block, uPA generation, miR-21 reporter)
CN(c1ccc(Cl)cc1)c1cc2c(c3c1ccn3C)C1CCC2O1 (configuration not stated)	DT40 TDP1 CPT inconclusive, DT40 TDP1 no CPT 23µM (no result: TDP1 block, uPA generation, miR-21 reporter)
COc1ccc(-c2cc3c(c4c2ccn4C)C2CCC3O2)cn1 (configuration not stated)	DT40 TDP1 CPT 18µM, DT40 TDP1 no CPT 16µM (no result: TDP1 block, uPA generation, miR-21 reporter)
CN(c1cccc(F)c1)c1cc2c(c3c1ccn3C)C1CCC2O1 (configuration not stated)	DT40 TDP1 CPT 16µM, DT40 TDP1 no CPT 16µM (no result: TDP1 block, uPA generation, miR-21 reporter)
CS(=O)(=O)c1ccc(C(=O)NCc2ccc(F)cc2)cc1	none
Cn1ccc2c(N3CCCCCCC3)cc3c(c21)C1CCC3O1 (configuration not stated)	DT40 TDP1 CPT inconclusive, DT40 TDP1 no CPT 21µM (no result: TDP1 block, uPA generation, miR-21 reporter)
Cn1ccc2c(/C=C/c3ccc(F)cc3)cc3c(c21)C1CCC3O1 (configuration not stated)	DT40 TDP1 CPT 26µM, DT40 TDP1 no CPT 12µM (no result: TDP1 block, uPA generation, miR-21 reporter)
O=C(NCCc1ccccc1)c1cccc(N2C(=O)C3CC=CCC3C2=O)c1 (configuration not stated)	none
Cc1ccc(-n2cc(CN(C)Cc3ncc[nH]3)c(-c3cccc(C)c3)n2)cc1	DT40 TDP1 CPT inconclusive, DT40 TDP1 no CPT 23µM
COc1cccc(-c2nn(-c3ccccc3)cc2CN(C)Cc2ccno2)c1	DT40 TDP1 CPT 21µM, DT40 TDP1 no CPT 21µM (no result: TDP1 block)
CCN1CC(CN(C)Cc2cn(-c3ccc(C)cc3)nc2-c2cccc(C)c2)CC1=O (configuration not stated)	DT40 TDP1 CPT inconclusive, DT40 TDP1 no CPT 15µM
C[C@H](CO)N1C[C@H](C)[C@@H](CN(C)S(C)(=O)=O)Oc2ccc(NC(=O)Nc3ccc4c(c3)OCO4)cc2C1=O	none (no result: miR-21 reporter)
CN1CCN(S(=O)(=O)c2ccc(Oc3cccc(C(F)(F)F)c3)nc2)CC1	DT40 TDP1 CPT inconclusive, DT40 TDP1 no CPT inconclusive (no result: miR-21 reporter)
COc1ccc2c(CC(=O)N[C@@H](Cc3ccccc3)C(=O)O)cc(=O)oc2c1	none (no result: TDP1 block)
O=C(O)c1ccc(/C=N\Nc2ccc(S(=O)(=O)N3CCOCC3)cc2[N+](=O)[O-])cc1	none
Cc1ccc(-n2c(O)c(/C=N/Nc3ccc(S(=O)(=O)N4CCOCC4)cc3[N+](=O)[O-])c3ccccc3c2=O)c(C)c1	DT40 TDP1 CPT 21µM, DT40 TDP1 no CPT 12µM, miR-21 reporter inconclusive
COc1ccc(NC2CCCN(C(=O)c3ccccc3C(F)(F)F)C2)cc1 (configuration not stated)	DT40 TDP1 no CPT inconclusive
CSCCC1NC2(C(=O)Nc3c(C)cc(Cl)cc32)[C@@H]2C(=O)N(C3CCCC3)C(=O)[C@H]12 (some centres not stated)	DT40 TDP1 CPT inconclusive, DT40 TDP1 no CPT 21µM
Cn1c(CNc2nc3ccccc3n2C)nc2ccccc21	none
Cc1ccc(CNc2nc3ccccc3n2C)cc1	uPA generation 4µM, DT40 TDP1 no CPT inconclusive (no result: TDP1 block)
Cc1ccc(NC(=O)NCc2nc3ccccc3n2C)cc1	DT40 TDP1 CPT inconclusive, DT40 TDP1 no CPT 23µM
Cn1c(NCc2ccc(Cl)cc2)nc2ccccc21	DT40 TDP1 CPT inconclusive, DT40 TDP1 no CPT 15µM
CC(C)(C)OC(=O)N1CCC(c2nnc(SCc3ccccc3F)o2)CC1	none (no result: DT40 TDP1 CPT, uPA generation, DT40 TDP1 no CPT)
Cn1c(=O)c2c(nc(N3CCCC3)n2CC(O)CO)n(C)c1=O (configuration not stated)	none
N#C/C(=C\c1c(N2CCN(Cc3ccccc3)CC2)nc2ccccn2c1=O)S(=O)(=O)c1ccccc1	none
O=C(NCCCn1ccnc1)C(=O)NCC(c1ccco1)N1CCN(c2ccccc2)CC1 (configuration not stated)	none
CN1/C(=C\C(=O)c2ccco2)C(C)(C)c2ccccc21	DT40 TDP1 CPT 2.6µM, DT40 TDP1 no CPT 3.7µM, miR-21 reporter inconclusive
CN1/C(=C\C(=O)c2cncc(Br)c2)C(C)(C)c2ccccc21	DT40 TDP1 CPT 3.7µM, DT40 TDP1 no CPT 2.6µM
CN1/C(=C/C(=O)c2nc(S(C)(=O)=O)ncc2Cl)C(C)(C)c2ccccc21	DT40 TDP1 CPT 0.58µM, DT40 TDP1 no CPT 0.46µM, miR-21 reporter inconclusive
O=C(/C=C/[C@H]1O[C@@H](n2ccc(=O)[nH]c2=O)[C@H](O)[C@@H]1O)N[C@@H](Cc1ccccc1)C(=O)O	none (no result: TDP1 block, uPA generation, miR-21 reporter)
CCOc1ccc(C2c3c(oc4ccccc4c3=O)C(=O)N2c2nnc(C)s2)cc1OC (configuration not stated)	none (no result: uPA generation)
c1ccc(C[n+]2ccc3ccccc3c2)cc1	DT40 TDP1 CPT 10µM, DT40 TDP1 no CPT 16µM (no result: TDP1 block, miR-21 reporter)
c1ccc(C[n+]2cccc(-c3ccccc3)c2)cc1	DT40 TDP1 CPT 8.2µM, DT40 TDP1 no CPT 8.2µM
O=C(C[n+]1ccc2ccccc2c1)c1ccccc1	none
